The source of these data is patent US5045530A, “Pharmaceutical preparations” (priority 1986, dated 1991).

Data set [1] has as its system interferon β. As to the kind of experiment: interferon induction in cell cultures of lymphocytes and fibroblasts.
Data set [2] relates to interferon α1. The description is as above. Conditions: Hg(CN)2 5 μg/ml to 15 μg/ml micellarly included in 0.1% (g/g) cationic tenside.
Data set [3] relates to cell-wall-synthesizing enzymes. To be noted: gramnegative bacteria.
Data set [4] can be described thus: toxicity of micellarly included active agents.

Some compounds may have been tested in ways that are not shown here.

Take mercury II cyanide: the “interferon β concentration induced” value in data set [1] (Hg(CN)2 5 μg/ml to 15 μg/ml micellarly included in 0.1% (g/g) cationic tenside) was 10-20 units/ml. Also, in data set [1] (micellar incorporation, in particular interferon β, fibroblast cultures), the “increase of interferon liberation compared with simple aqueous buffered solutions of mercury II cyanide” value fell in the range of 10 to 100 fold. Besides, the “interferon α1 concentration induced” value in data set [2] is recorded as 20-50 units/ml. Moreover, the “concentration at which the micellarly included substance reacts with the cell-wall-synthesizing enzymes” value in data set [3] was 10 µg/mL. Further, in data set [4], the “reduction of toxicity by inclusion in N-tensides” value is on record as “up to 80%”.
